Chains of the proteins cited; added tags and fusions are not shown. Lines headed by an entry give the natural chain unless they say otherwise; changes in a name come on top.
UniProt O42275: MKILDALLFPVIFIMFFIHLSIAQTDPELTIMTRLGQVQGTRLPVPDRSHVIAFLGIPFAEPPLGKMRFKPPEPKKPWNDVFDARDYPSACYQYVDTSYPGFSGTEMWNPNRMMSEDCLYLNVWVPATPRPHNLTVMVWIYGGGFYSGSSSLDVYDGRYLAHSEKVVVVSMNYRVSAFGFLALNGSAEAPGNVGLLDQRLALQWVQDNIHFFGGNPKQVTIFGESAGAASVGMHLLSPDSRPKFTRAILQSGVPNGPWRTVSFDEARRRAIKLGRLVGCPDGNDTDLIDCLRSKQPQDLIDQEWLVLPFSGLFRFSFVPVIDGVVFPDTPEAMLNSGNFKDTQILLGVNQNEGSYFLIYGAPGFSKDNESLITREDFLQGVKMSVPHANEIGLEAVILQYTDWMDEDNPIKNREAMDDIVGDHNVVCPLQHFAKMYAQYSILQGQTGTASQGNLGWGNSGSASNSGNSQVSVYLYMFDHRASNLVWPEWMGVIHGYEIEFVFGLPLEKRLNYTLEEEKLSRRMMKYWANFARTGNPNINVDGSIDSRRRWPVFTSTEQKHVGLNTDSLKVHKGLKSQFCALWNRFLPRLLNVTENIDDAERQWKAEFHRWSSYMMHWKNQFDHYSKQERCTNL

According to ChEMBL document CHEMBL3044855, “In vitro reactivation of organophosphorus (OP)-inhibited electric eel acetylcholinesterase by novel monoquaternary pyridinium oximes” (2013):

Experiments:
Set-up in all cases: scale not given: the % may be the effect or the level left
[1] = molecular target: Acetylcholinesterase (Electrophorus electricus) (UniProt O42275); assay: Reactivation of VX-inhibited Electrophorus electricus (electric eel) acetylcholinesterase using acetylthiocholine iodide as substrate at 1 mM incubated at 15 min post VX-inhibition measured after 40 min by Ellman method
[2] = molecular target: Acetylcholinesterase (Electrophorus electricus) (UniProt O42275); assay: Reactivation of VX-inhibited Electrophorus electricus (electric eel) acetylcholinesterase using acetylthiocholine iodide as substrate at 1 mM incubated at 15 min post VX-inhibition for 10 min by Ellman method
[3] = molecular target: Acetylcholinesterase (Electrophorus electricus) (UniProt O42275); assay: Reactivation of DFP-inhibited Electrophorus electricus (electric eel) acetylcholinesterase using acetylthiocholine iodide as substrate at 1 mM incubated at 15 min post DFP-inhibition for 10 min by Ellman method
[4] = molecular target: Acetylcholinesterase (Electrophorus electricus) (UniProt O42275); assay: Reactivation of sarin-inhibited Electrophorus electricus (electric eel) acetylcholinesterase using acetylthiocholine iodide as substrate at 1 mM incubated at 15 min post sarin-inhibition for 10 min by Ellman method

Row | Structure (SMILES) | Activity [1] | further results
1 | CCCCCCCCCCCOC[n+]1cccc(/C=N/O)c1 | Active | 
2 | CCCCCCCCCOC[n+]1ccc(/C=N/O)cc1 | Active | 
3 | CCCCCCCOC[n+]1cccc(/C=N/O)c1 | Active | 
4 | CCCCCCCCOC[n+]1ccc(/C=N/O)cc1 | Active | 
5 | CCCCCCCOC[n+]1ccc(/C=N/O)cc1 | Active | 
6 | CCCCCCCCCCOC[n+]1cccc(/C=N/O)c1 | Active | 
7 | CCCCCCCCCCOC[n+]1ccc(/C=N/O)cc1 | Active | 
8 | CCCCCCCCCOC[n+]1cccc(/C=N/O)c1 | Active | 
9 | CCCCCCOC[n+]1ccc(/C=N/O)cc1 | Active | 
10 | Cc1ccc(COC[n+]2ccc(/C=N/O)cc2)cc1 | Active | Activity [2]: 41%; Activity [3]: 42%
11 | Cc1ccc(COC[n+]2cccc(/C=N/O)c2)cc1 | Active | 
12 | CCCCCCCCCCCCOC[n+]1ccc(/C=N/O)cc1 | Active | 
13 | CCCCCCCCOC[n+]1cccc(/C=N/O)c1 | Active | 
14 | O/N=C/c1ccc[n+](COCc2ccccc2)c1 | Active | Activity [2]: Active; Activity [3]: Active
15 | CCCCCCCCCCCOC[n+]1ccc(/C=N/O)cc1 | Active | 
16 | O/N=C/c1cc[n+](COCc2ccccc2)cc1 | 59% | Activity [2]: 54%; Activity [4]: 26%; Activity [3]: 52%
17 | CCCCCCCCCCCCOC[n+]1cccc(/C=N/O)c1 | Active | 
18 | CCCCCCOC[n+]1cccc(/C=N/O)c1 | Active | 

Calls of active or inactive are those of the source. The rule behind the calls is not given here.
